This experiment has as its target Factor D (Homo sapiens (Human), UniProt P00746). Format: biochemical.

Sequences of proteins named here, by UniProt entry; tags and fusion partners are left off. Residues count along the entry.
UniProt P00746, 26-253: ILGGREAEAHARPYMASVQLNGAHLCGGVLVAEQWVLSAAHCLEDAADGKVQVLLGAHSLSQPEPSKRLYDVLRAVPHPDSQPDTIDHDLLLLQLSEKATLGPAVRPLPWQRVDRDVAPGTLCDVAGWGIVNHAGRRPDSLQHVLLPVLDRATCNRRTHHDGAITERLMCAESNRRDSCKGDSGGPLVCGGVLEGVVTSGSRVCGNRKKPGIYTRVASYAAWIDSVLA

`NC(=O)n1cc(NC(=O)N2C[C@H](F)C[C@H]2CNC(=O)Oc2ccccc2)c2ccccc21` [Example 114, [(2S,4R)-1-(1-Carbamoyl-1H-indol-3-ylcarbamoyl)-4-fluoro-pyrrolidin-2-ylmethyl]-carbamic acid phenyl ester] returned a half-maximal inhibitory concentration (IC50) of 0.5 µM.
In the case of `NC(=O)n1cc(NC(=O)N2[C@H](CNC(=O)Oc3cccc(Cl)c3F)C[C@H]3C[C@H]32)c2ccccc21` [Example 115, [(1R,3S,5R)-2-(1-Carbamoyl-1H-indol-3-ylcarbamoyl)-2-aza-bicyclo[3.1.0]hex-3-ylmethyl]-carbamic acid 3-chloro-2-fluoro-phenyl ester] it was 1.54 µM.

Usually IC50 stands for the concentration that inhibits the measured activity by half.
